Experimental data: PubChem BioAssay AID761 (NMMLSC, 2007)
The entries are a selection whose mix differs from that of the whole data set. Activity calls are given as the source filed them.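 How the source made its calls: active means percent activity GTP binding at least 20 points away from the 100% baseline, either down as inhibitor or up as activator; inconclusive means compound flagged as likely green fluorescent from well-wide comparison; inactive means the rest.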

Amino acid sequences for entries named in this document (tags omitted).
UniProt P60953, whole entry, looked up: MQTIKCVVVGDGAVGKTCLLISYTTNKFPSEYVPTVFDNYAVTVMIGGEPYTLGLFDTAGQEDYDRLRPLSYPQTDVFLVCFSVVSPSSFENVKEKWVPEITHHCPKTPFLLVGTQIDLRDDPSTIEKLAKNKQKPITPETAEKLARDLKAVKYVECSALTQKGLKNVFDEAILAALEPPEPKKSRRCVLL

molecular target: Cell division control protein 42 homolog (Homo sapiens) (UniProt P60953); assay: modulators of GTP binding to wildtype Cdc42, primary screen, biochemical, multiplex bead flow cytometry, Bodipy-GTP (AID 761); settings: GST-Cdc42 beads, at 10 µM, actives lie on both sides;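 further: median bead fluorescence of bound Bodipy-FL-GTP at 100 nM; 0% = excess unlabeled GTP control and 100% = no compound control; below 100% means less GTP binding so inhibitor and above means activator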

Row | SMILES | percent activity (GTP binding)
1 | ClCCSc1nnc(-c2cccnc2)o1 | inactive: 102%
2 | O=[N+]([O-])c1cc([N+](=O)[O-])c(-c2ccn[nH]2)s1 | inactive: 102%
3 | CC(C)NC(=O)NP(=O)(Oc1ccccc1)Oc1ccccc1 | inactive: 98%
4 | CCN(CC)C(=S)SC(NC=O)C(Cl)(Cl)Cl (stereo unspecified) | inactive: 96%
5 | Cc1ccc2nc3c(c(C)c2c1)CC(C(Cl)Cl)S3 (stereo unspecified) | inactive: 97%
6 | CCN(N=Nc1nonc1N)c1nonc1N | inactive: 100%
7 | Cc1cc(SC(NC(=O)c2ccc(F)cc2)C(Cl)(Cl)Cl)ncn1 (stereo unspecified) | inactive: 101%
8 | CCOP(=O)(Nc1ccccc1)OCC | inactive: 108%
9 | CC(C)CC(=O)NC(Sc1ccc(Cl)cc1)C(Cl)(Cl)Cl (stereo unspecified) | inactive: 97%
10 | O=C(NC(Sc1ccncn1)C(Cl)(Cl)Cl)c1ccccc1 (stereo unspecified) | inactive: 97%
11 | Cc1c2non([O-])c-2c(C)[n+](=O)[n+]1[O-] | inactive: 99%
12 | Oc1ccccc1CNc1ccccn1 | inactive: 101%
13 | NC(=O)c1cc([N+](=O)[O-])cc([N+](=O)[O-])c1N | inactive: 97%
14 | Cc1ccc(N/C(=N/P(=O)(N2CCOCC2)N2CCOCC2)N2CCOCC2)cc1 | inactive: 98%
15 | CN1CCCC(OC(=O)C(c2ccccc2)c2ccccc2)C1 (stereo unspecified) | inactive: 99%
16 | Clc1ccc(Cl)c(NC2=NCC(CBr)S2)c1 (stereo unspecified) | inactive: 99%
17 | CCN(/C(=N/P(=O)(N1CCOCC1)N1CCOCC1)N1CCOCC1)c1ccc(OC)cc1 | inactive: 97%
18 | CN(C)C(=O)OCCc1n(C)cc[n+]1C | inactive: 101%
19 | CC1CCN(C(=O)Oc2c(Cl)cc(Cl)c3cccnc23)CC1 | inactive: 100%
20 | COc1ccc(C2=NCC(CBr)S2)cc1 (stereo unspecified) | inactive: 97%
21 | O=[N+]([O-])c1cccc2n[nH]nc12 | inactive: 106%
22 | CC(=O)N1C2C3N(C(C)=O)C1C1N(C(C)=O)C(C(N1C(C)=O)N3C(C)=O)N2C(C)=O | inactive: 98%
23 | CCc1nc2c(n1)c1c(non1O)c1c2no[n+]1[O-] | inactive: 97%

Row | SMILES | percent activity (GTP binding)
24 | O=[N+]([O-])c1cc([N+](=O)[O-])c(CCNc2ccccc2)c([N+](=O)[O-])c1 | inactive: 97%
25 | Cc1ccc(NP(=O)(Oc2ccccc2)Oc2ccccc2)nc1 | inactive: 97%
26 | O=[N+]([O-])c1ncn(CCn2ncnc2[N+](=O)[O-])n1 | inactive: 94%
27 | CC(=O)NC(SC(=S)N(C)C)C(Cl)(Cl)Cl (stereo unspecified) | inactive: 100%
28 | C(Cc1nn[nH]n1)Cc1nn[nH]n1 | inactive: 106%
29 | O=C(OC1CN2CCC1CC2)c1cccc(Cl)c1 (stereo unspecified) | inactive: 102%
30 | O=P(Nc1ccccn1)(c1ccc(Br)cc1)c1ccc(Br)cc1 | inactive: 96%
31 | CC(C)C(=O)NC(Sc1ccccc1)C(Cl)(Cl)Cl (stereo unspecified) | inactive: 101%
32 | O=P(Nc1nccs1)(c1ccccc1)c1ccccc1 | inactive: 104%
33 | c1nnnn1CCn1cnnn1 | inactive: 104%
34 | CC(=O)Nc1ccc(Oc2c([N+](=O)[O-])cc([N+](=O)[O-])cc2[N+](=O)[O-])cc1 | inactive: 87%
35 | CCOc1ccc(C2=NCC(CBr)S2)cc1 (stereo unspecified) | inactive: 98%
36 | O=P1(Nc2nc3ccc(Cl)cc3s2)COc2ccccc2O1 (stereo unspecified) | inactive: 93%
37 | CC(C)(C)C(=O)NC(Sc1ccccc1)C(Cl)(Cl)Cl (stereo unspecified) | inactive: 93%
38 | CC(=O)NC(SC(=S)N(CC(C)C)CC(C)C)C(Cl)(Cl)Cl (stereo unspecified) | inactive: 101%
39 | Cc1ccc(OP(=O)(Nc2ccccn2)Oc2ccc(C)cc2)cc1 | inactive: 93%
40 | COC(=O)c1cc2c(s1)N=C(c1ccccc1)N(C)P2(=O)N1CCOCC1 (stereo unspecified) | inactive: 95%
41 | CCC(=O)N1C2C3N(C(=O)CC)C1C1N(C(=O)CC)C(C(N1C(=O)CC)N3C(=O)CC)N2C(=O)CC | inactive: 100%
42 | O=c1c2cc([N+](=O)[O-])ccc2[nH]c2c([N+](=O)[O-])cc([N+](=O)[O-])cc12 | inactive: 91%
43 | CCNC(=S)/N=C(\N)N[N+](=O)[O-] | inactive: 97%
44 | O=C(NC1CCS(=O)(=O)C1)NP(=S)(Oc1ccccc1)Oc1ccccc1 (stereo unspecified) | inactive: 96%
45 | CCOC(=O)NC(Sc1ccccc1)C(Cl)(Cl)Cl (stereo unspecified) | inactive: 96%
46 | c1ccc(-c2nn[nH]n2)c(-c2nn[nH]n2)c1 | inactive: 95%
